In US9284283B2, “Macrocyclic compounds for modulating IL-17” (ENSEMBLE THERAPEUTICS CORPORATION, priority 2012, dated 2016) one finds IC50 data, which are given here for one compound.

The subject of this test is IL-17-induced GROα secretion from HT-29 cells. The test can be described thus: HT-29 cellular assay (IL-17-induced GROα secretion). The note with it: read-out: HT-29. How it is done: To test the ability of a compound of the invention to neutralize or antagonize IL-17 bioactivity, the following cell-based assay was used. IL-17 can stimulate epithelial cells and other cells to secrete GROα. The ability of a compound of the invention to neutralize IL-17-induced GROα secretion from the human colorectal adenocarcinoma epithelial cell line HT-29 is tested in this assay.
HT-29 cells (human colorectal adenocarcinoma epithelial cells, ATCC #HTB-38), were maintained in culture/assay medium in tissue culture-treated flasks using standard techniques. HT-29 cells were grown in tissue culture flasks until they were 50-80% confluent on the day before the assay. The day before the assay, the cells were detached from the culture flasks with trypsin+EDTA. The trypsin was inactivated with complete assay medium. […]
At the end of the incubation, the plates are centrifuged (500×g for 5 minutes at room temperature), and the cell culture media is transferred to polypropylene 96-well plates. […] GROα levels are measured with a GROα sandwich ELISA (R+D Systems DuoSet #DY275E), as per the manufacturer's instructions. […] GROα is detected using biotinylated goat anti-human GROα (R+D Systems BAF275) at 200 ng/mL using TMB as a substrate. At the end of the ELISA reactions, plates are read at 450 nm on a microplate reader and compared to a standard calibration curve.

pIC50: −log10 of the molar value.

As to `O=C1CNC(=O)[C@@H](Cc2ccc(NC(=O)[C@H](Cc3ccccc3Cl)NC(=O)Cc3ccccc3)cc2)NC(=O)CC2(CCCC2)CC(=O)N[C@H](C(=O)O)CCCCN1`, the pIC50 is more than 6.00.
